From PubChem BioAssay AID588689 (Southern Research Specialized Biocontainment Screening …, 2011) come the findings set out here.

Sequences of proteins named here, by UniProt entry; tags and fusion partners are left off.
UniProt P29991, whole entry: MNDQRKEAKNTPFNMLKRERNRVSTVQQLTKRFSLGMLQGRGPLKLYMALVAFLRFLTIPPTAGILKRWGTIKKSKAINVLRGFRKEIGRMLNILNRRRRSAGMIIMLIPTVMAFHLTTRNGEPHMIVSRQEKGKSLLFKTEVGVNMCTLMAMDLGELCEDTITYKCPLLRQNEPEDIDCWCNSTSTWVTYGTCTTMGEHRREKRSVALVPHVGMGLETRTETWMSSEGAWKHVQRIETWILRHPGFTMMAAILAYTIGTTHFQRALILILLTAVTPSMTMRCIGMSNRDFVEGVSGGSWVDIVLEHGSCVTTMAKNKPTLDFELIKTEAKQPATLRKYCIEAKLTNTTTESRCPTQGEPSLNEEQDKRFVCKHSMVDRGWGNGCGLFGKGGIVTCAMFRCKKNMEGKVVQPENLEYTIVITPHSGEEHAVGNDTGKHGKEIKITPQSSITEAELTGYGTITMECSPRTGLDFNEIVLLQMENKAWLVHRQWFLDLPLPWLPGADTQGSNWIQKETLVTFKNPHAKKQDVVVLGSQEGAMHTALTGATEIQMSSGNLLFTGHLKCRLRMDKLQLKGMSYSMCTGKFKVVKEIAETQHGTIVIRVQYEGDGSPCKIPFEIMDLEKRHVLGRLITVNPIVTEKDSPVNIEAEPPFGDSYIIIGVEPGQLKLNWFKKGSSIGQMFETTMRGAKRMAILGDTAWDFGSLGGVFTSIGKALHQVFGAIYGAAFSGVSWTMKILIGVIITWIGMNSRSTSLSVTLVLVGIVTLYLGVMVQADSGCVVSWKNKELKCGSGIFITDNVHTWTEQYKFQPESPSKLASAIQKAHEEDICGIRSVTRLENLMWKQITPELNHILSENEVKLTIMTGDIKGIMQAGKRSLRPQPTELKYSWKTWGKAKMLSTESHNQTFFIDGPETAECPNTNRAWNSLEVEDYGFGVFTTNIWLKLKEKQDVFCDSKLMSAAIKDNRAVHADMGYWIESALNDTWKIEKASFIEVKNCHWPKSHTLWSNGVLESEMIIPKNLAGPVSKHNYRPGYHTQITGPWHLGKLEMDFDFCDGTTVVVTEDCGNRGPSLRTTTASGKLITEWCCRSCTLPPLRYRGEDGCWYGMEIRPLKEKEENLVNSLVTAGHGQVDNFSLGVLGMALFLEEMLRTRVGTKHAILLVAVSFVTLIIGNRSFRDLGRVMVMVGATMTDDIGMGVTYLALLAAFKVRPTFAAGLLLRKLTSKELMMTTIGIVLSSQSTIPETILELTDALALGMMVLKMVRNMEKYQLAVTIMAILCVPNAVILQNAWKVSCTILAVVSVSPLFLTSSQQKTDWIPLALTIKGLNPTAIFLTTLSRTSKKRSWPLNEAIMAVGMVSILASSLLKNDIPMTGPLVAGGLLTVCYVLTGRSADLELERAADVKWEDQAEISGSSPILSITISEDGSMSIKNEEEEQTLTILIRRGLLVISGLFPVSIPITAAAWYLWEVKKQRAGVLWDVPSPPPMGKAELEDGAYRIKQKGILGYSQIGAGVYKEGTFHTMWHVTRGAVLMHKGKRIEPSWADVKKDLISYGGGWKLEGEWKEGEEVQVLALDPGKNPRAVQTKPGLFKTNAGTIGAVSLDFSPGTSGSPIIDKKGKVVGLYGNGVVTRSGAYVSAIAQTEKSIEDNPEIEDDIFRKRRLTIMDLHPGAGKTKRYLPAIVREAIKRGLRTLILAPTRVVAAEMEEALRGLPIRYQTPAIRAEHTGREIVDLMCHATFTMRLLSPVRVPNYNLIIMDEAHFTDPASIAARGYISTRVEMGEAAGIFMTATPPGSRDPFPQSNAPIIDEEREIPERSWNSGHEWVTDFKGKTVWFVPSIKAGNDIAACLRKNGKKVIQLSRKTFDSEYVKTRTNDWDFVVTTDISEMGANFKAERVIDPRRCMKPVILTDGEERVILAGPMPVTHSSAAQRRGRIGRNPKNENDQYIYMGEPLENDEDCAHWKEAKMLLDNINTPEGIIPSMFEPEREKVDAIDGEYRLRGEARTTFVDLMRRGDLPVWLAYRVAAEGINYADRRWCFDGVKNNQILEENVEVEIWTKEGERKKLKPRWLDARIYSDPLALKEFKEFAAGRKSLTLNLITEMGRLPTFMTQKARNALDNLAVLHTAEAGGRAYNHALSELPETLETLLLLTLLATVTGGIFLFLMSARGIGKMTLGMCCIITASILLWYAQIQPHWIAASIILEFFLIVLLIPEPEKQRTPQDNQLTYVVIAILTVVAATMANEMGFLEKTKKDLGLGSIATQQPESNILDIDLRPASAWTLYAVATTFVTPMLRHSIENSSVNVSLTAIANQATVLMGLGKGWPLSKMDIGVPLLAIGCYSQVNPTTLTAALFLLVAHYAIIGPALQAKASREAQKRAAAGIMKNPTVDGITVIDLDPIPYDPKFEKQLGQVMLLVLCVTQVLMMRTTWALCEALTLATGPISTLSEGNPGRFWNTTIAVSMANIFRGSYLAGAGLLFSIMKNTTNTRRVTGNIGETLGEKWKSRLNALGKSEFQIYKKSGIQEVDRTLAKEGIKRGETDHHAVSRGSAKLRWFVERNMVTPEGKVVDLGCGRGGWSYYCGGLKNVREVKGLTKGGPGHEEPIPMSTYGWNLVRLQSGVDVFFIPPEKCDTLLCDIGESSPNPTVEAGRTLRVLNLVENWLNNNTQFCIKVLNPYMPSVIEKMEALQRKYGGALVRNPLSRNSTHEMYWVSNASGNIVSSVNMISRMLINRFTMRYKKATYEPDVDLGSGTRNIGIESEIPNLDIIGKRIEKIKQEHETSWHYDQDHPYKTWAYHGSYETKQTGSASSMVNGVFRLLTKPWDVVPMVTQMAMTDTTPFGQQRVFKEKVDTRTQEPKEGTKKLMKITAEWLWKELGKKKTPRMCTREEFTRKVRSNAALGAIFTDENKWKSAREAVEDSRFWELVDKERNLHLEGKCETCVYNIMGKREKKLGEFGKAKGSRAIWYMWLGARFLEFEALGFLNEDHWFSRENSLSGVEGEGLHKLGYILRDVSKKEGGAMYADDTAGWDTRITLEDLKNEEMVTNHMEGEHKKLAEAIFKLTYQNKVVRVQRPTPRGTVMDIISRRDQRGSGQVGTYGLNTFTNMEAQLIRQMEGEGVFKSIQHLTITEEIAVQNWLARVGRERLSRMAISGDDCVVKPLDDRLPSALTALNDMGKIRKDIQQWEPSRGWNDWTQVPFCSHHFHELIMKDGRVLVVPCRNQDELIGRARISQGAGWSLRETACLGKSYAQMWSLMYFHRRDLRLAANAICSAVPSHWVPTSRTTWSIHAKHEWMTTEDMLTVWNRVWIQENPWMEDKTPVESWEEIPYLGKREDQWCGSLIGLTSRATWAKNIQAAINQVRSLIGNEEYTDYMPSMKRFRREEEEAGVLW

This is one part of the list. Results with a measured potency or affinity are listed apart. Some of these compounds have results that are not shown, active ones among them. Activity calls are given as the source filed them. Cut-off read from the data, not from the text of the source: inconclusive = inhibition above about 29% without an active follow-up result; inactive = below that.

By inhibition is commonly meant the relative decrease from the control value, in per cent.

For the assay, the target named is Genome polyprotein (Dengue virus type 2 (strain 16681-PDK53)) (UniProt P29991). Description: Dengue-2 NS5 methyltransferase inhibitors, primary screen, biochemical, confirmation dose response (AID 588689). Particulars: Dengue-2 NS5 methyltransferase capping enzyme assay, at 25 µM, active compounds read high.
For `O=C(NCC1(N2CCCCC2)CCCCC1)c1cc([N+](=O)[O-])ccc1Cl`, the inhibition was inactive: -12.2%.

`CN1[C@@H]2CC[C@H]1CC(OC(=O)C(O)(c1ccccc1)c1ccccc1)C2` (stereo partly specified): the inhibition is inactive: -8.6%.

As for `CC(C)N1C(=O)CC2(CCN(CCOC(=O)C(O)(c3ccccc3)c3ccccc3)CC2)C1=O`, the inhibition was inactive: 1.35%.

As for `COc1cc(SC)ccc1C(=O)NCC1(N(C)C)CCCCC1`, the inhibition is inactive: -3.27%.

`CCN(CC)CC(C)C(C)OC(=O)C(O)(c1ccccc1)c1ccccc1` (stereo unspecified): the inhibition is inactive: -5.49%.

For `Cc1ccc(C(=O)NCC2(N3CCCCC3)CCCCC2)cc1`, the inhibition was inactive: -16.3%.

As for `CN(C)C1CCCC1OC(=O)C(O)(c1ccccc1)c1ccccc1` (stereo unspecified), the inhibition is inactive: -0.73%.

`CN(C)c1ccc(C(=O)NCC2(N(C)C)CCCCC2)cc1`: the inhibition was inactive: -0.65%.

Turning to `Cc1ccccc1C(=O)NCC1(N2CCCCC2)CCCCC1`, the inhibition was inactive: -2.29%.

As for `O=C(NCC1(N2CCCCC2)CCCCC1)c1cc(F)c(F)cc1Cl`, the inhibition was inactive: -3.16%.

Turning to `C=CCN1CCN(CCOC(=O)C(O)(c2ccccc2)c2ccccc2)CC1`, the inhibition is inactive: -10.1%.

Consider `O=C(NCC1(N2CCCCC2)CCCCC1)c1cccc(Br)c1`, for which the inhibition was inactive: -4.13%.

Take `Cc1cc(C(=O)NCC2(N3CCCCC3)CCCCC2)ccc1[N+](=O)[O-]`: the inhibition is inactive: -4.85%.

For `CCN1CCCC(OC(=O)C2(O)c3ccccc3C=Cc3ccccc32)C1` (stereo unspecified), the inhibition is inactive: -9.46%.

In the case of `COc1ccc(C(=O)NCC2(N(C)C)CCCCC2)cc1`, the inhibition was inactive: -8.46%.

Consider `CN(C)C1(CNC(=O)c2ccc(Br)cc2)CCCCC1`, for which the inhibition was inactive: -3.92%.

Regarding `COc1cc(C(=O)NCC2(N(C)C)CCCCC2)c([N+](=O)[O-])cc1OC`, the inhibition was inactive: -0.65%.

Take `COc1ccc(Cl)cc1C(=O)NCC1(N(C)C)CCCCC1`: the inhibition was inactive: -1.96%.

Turning to `COc1cccc(C(=O)NCC2(N3CCCCC3)CCCCC2)c1`, the inhibition was inactive: 1.48%.

Take `O=C(NCC1(N2CCCCC2)CCCCC1)c1cccc(Cl)c1`: the inhibition is inactive: 4.45%.

For `O=C(OC1CN2CCC1CC2)C(CO)(c1ccccc1)c1ccccc1` (stereo unspecified), the inhibition is inactive: -2.23%.

Consider `COc1ccc(Br)c(C(=O)NCC2(N3CCCCC3)CCCCC2)c1`, for which the inhibition is inactive: -6.27%.

As for `C=C(C)C#CC(O)(C(=O)OC1CCN(C)CC1)c1ccccc1` (stereo unspecified), the inhibition is inactive: 0%.

As for `CN(C)c1cccc(C(=O)NCC2(N(C)C)CCCCC2)c1`, the inhibition is inactive: 0%.

Regarding `O=C(OCCN1CCCC1)C(O)(c1ccccc1)c1ccccc1`, the inhibition is inactive: 1.59%.

Turning to `CC(C)Oc1ccc(C(=O)NCC2(N(C)C)CCCCC2)cc1`, the inhibition is inactive: 1.96%.
